Assay results published in patent US20260384421A1, “NOVEL COMPOUNDS THAT CAN BE USED AS THERAPEUTIC AGENTS” (published 2026).

System: AMPK (Thr172 phosphorylation) in HEP-G2 cells
Assay: AMPK activation assay on HEP-G2 cells (Thr172 phosphorylation, western blot)
Conditions: 10 nM, 20 hours, Thr172 phosphorylation relative to DMSO control
Protocol: AMPK activation can be assessed by the levels of AMPK phosphorylation at Thr172. The APMK activating activities of compounds falling under general formula (I) were investigated by western blotting on different cancer cell lines. Access and cultivation of the respective cell lines are as described above. To this end, A-549, HEP-G2, and HCT-116 cells were seeded into 6-well culture plates (Cyto-One®, #CC7682-7506) in a total volume of 2 mL at a density to achieve 80% confluency by 48 hours and incubated over night at 37 °C and 5% CO2. Cells were treated at a confluency of around 50% with compounds at indicated final concentration by adding 2 μL per well of a 1000× compound DMSO stock-solution. Cells were incubated for 20 hours at 37 °C and 5% CO2. Then, cells were lysed in RIPA buffer (Pierce™ RIPA Buffer, FisherScientific, #89900) supplemented with 1× cOmplete™ Mini Protease Inhibitor Cocktail (Roche, #11836153001) and 1 mM Sodium Orthovanadate (Na3VO3, FisherScientific, #J60191) and lysates were subjected to standard western blotting procedure. Protein concentration of the samples was determined by BCA assay and samples were normalized to achieve equal protein concentration. 4× Laemmli Sample Buffer (Bio-Rad, #1610747) was supplemented with 200 μM DTT (Sigma Aldrich-Merck, #D9779) and added to the samples to achieve a final concentration of 1× Laemmli/50 μM DTT by diluting lysate samples with supplemented Laemmli buffer 1:4. Samples were then incubated at 95 °C for 5 min in a Thermomixer (Eppendorf). SDS-PAGE was performed in 1× Tris/Glycine/SDS buffer (TGS, Bio-Rad, #1610772) using 4-15% gradient polyacrylamide gels (4-15% Mini-PROTEAN® TGX Stain-Free™ Gel, Bio-Rad, #456-8084). Proteins were transferred onto 0.2 μm PVDF membranes using the semi-dry Trans-Blot® Turbo™ transfer system (Trans-Blot® Turbo™, Bio-Rad, #170-4150) with prepacked Trans-Blot® Turbo™ transfer packs (Bio-Rad, #170-4156). Immunodetection of AMPK, pAMPK (Thr172), and β-Actin was performed using the following primary antibodies: AMPKα (F6) Mouse mAb (Cell Signaling Technologies, #2793) for AMPK, Phospho-AMPKα (Thr172) (40H9) Rabbit mAb (Cell Signaling Technologies, #2535) for pAMPK (Thr172), and Purified anti-β-actin Antibody (Rat monoclonal, W16197A) (Cell Signaling Technologies, #664802) for β-Actin. HRP-linked secondary antibodies in 5% nonfat dried milk (AppliChem, #A0830) in 1×TBS containing 0.1% Tween-20 were used for the corresponding species mouse, rabbit and rat (Cell Signaling Technologies, #7076, #7074, #7077), respectively. Signals were developed with chemiluminescence substrate (SuperSignal™ West Pico PLUS, Fisher Scientific, #34577) and detected with the ChemiDoc™ MP imaging system (ChemiDoc™ MP, Bio-Rad, #12003154). Chemiluminescence signals of phosphorylation, total protein and loading control were quantified by densitometry using the image analysis software Image Lab™ (version 6.0.1, Bio-Rad). The corresponding lysates from DMSO treated cells were included on each membrane as the base line control for blot-internal signal normalization. The standard deviation of signal intensities of the loading control-Actin within each blot was 16% or lower confirming equal loading of protein amounts.
For each condition, the ratio of phosphorylation to corresponding total protein was calculated from the signal intensities. The ratios were then normalized to the corresponding ratio of the DMSO control to yield the fold-change values of phosphorylation.
In the following embodiments, a compound is considered as an AMPK activator if the fold-change value of phosphorylation is 1.5 or higher, preferably 2.0 or higher, and more preferably 2.5 or higher as determined with the method described above.

Row | Compound | Fold-change AMPK activation
1 | COC1CCC(c2ccc(Oc3ccc(C(=O)N4CCN(Cc5ccc(Cl)cc5)CC4)cc3)c(CO)c2)CC1 (centres unmarked) | ≥2.5
2 | COc1ccc(CN2CCN(C(=O)c3ccc(Oc4ccc(C5CCCCC5)cc4CO)cc3)CC2)cc1 | ≥1.5
3 | COc1ccc(CN2CCN(C(=O)c3ccc(Oc4ccc(C5CCC(OC)CC5)cc4CO)cn3)CC2)cc1 (centres unmarked) | ≥1.5
4 | O=C(c1ccc(Oc2ccc(C3CCCCC3)cc2CO)cc1)N1CCN(Cc2ccc(Cl)cc2)CC1 | ≥1.5
5 | COC1CCC(c2ccc(Oc3ccc(C(=O)N4CCN(Cc5ccccc5)CC4)nc3)c(CO)c2)CC1 (centres unmarked) | ≥2.5
6 | O=C(c1ccc(Oc2ccc(C3CCC4(CC3)OCCO4)cc2CO)cc1)N1CCN(Cc2ccc3ccccc3c2)CC1 | ≥2.0
7 | COc1ccc(CN2CCN(C(=O)c3ccc(Oc4ccc(C5CCC(OC)CC5)cc4CO)cc3)CC2)cc1 (centres unmarked) | ≥2.0
8 | O=C(c1ccc(Oc2ccc(C3CCCCC3)cc2CO)cn1)N1CCN(Cc2ccc(OC(F)(F)F)cc2)CC1 | ≥2.5
